The test addresses Substance-K receptor (Homo sapiens, UniProt P21452). The test is described as follows: Displacement of [125I]NKA from human recombinant tachykinin NK2 receptor expressed in CHO cells after 60 mins by scintillation counting. The test is classed as cell-based. (In general: Loss of bound radioactivity is the signal in a displacement assay; it reports binding, not function.)

Chains of the proteins cited; added tags and fusions are not shown.
UniProt P21452, whole entry: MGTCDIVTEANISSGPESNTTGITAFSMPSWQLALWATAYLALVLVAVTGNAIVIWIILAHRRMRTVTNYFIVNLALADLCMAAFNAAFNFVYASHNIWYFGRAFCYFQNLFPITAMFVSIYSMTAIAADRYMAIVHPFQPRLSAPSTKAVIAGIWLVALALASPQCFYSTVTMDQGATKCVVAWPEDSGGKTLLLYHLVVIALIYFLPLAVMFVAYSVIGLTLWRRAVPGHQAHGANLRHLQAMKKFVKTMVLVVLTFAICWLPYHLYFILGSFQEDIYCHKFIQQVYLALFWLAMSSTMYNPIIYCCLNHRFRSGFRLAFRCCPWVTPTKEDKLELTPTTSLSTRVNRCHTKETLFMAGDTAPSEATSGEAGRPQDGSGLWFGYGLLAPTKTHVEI

pIC50, pKi: −log10 of the molar value.

With `CCCC[C@H](NC(=O)[C@H](CC(C)C)NC(=O)CNC(=O)[C@@H](NC(=O)[C@H](Cc1ccccc1)NC(=O)[C@H](CO)NC(=O)[C@@H](N)CC(=O)O)C(C)C)C(N)=O`, the pIC50 (commonly the negative decadic logarithm of the IC50, by convention in mol/L) is 8.44 and the pKi (usually the negative decadic logarithm of the Ki, by convention in mol/L) was 8.70.

The values are drawn from ChEMBL document CHEMBL4000185, “Pyrimidine-Based Inhibitors of Dynamin I GTPase Activity: Competitive Inhibition at the Pleckstrin Homology Domain” (J Med Chem, 2017).
